# Binding of CDR-mutated scFvs to a peptide of the spike HR2 region

The measurements come from Li et al. 2023 (doi:10.1038/s41467-023-39022-2) through the FLAb antibody collection.

Antigen: PDVDLGDISGINAS, a 14-residue peptide of the SARS-CoV-2 spike HR2 region.

Parent: Ab-14, a human scFv built as VH, the linker GGGGSGGGGSGGGGS, VL. Only the CDRs of the heavy chain vary.
VH: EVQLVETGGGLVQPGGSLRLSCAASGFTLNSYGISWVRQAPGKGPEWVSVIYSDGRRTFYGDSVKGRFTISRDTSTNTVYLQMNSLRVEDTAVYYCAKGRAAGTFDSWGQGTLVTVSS
VL: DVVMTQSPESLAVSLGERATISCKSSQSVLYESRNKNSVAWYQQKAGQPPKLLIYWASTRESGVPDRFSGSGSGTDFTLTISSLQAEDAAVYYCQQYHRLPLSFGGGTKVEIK

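The parent was found by panning a naive human phage display library on the peptide. This is the validation round: designs drawn from the data on random variants, tested in the same kind of assay. Group labels follow the data file (En: ensemble of fine-tuned language models; HC: hill climbing; Gen: genetic algorithm; Gibbs: Gibbs sampling; a sequence that several methods proposed may carry one label only). Affinity was read by AlphaSeq, a pooled yeast mating assay with surface-displayed partners. Pairs that bind mate more often; barcode pairs of the diploids are counted by sequencing. Each replicate has its own calibration line, from reference interactions of the BCL2 family. Each pool was mated in six replicate cultures.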

Variants are written as CDR1, CDR2 and CDR3 of the heavy chain (limits as in the source). Parent: GFTLNSYGIS, VIYSDGRRTFYGDSVK, GRAAGTFDS.
This list holds designs with more than six substitutions.
Values are log10 of the apparent Kd in nM; lower means stronger binding.
Averages over replicates are reported, and they cover detected replicates only.
Where no diploid with the target was found in any replicate, the entry reads "nd": below detection, most likely a poor binder, though not proof of it.
The authors' rule: three or more of the six replicates give a measured affinity, fewer mean a poor binder.

Variant GFALNEYGIS | VIYADGIRSRYANKVK | GNQAGTLLI [En_Gibbs] gave nd (0 of 6 replicates; controls 0 of 18). Variant GFDLNEYGIS | VIYADGRRTFYSDSVK | GEVAGTFDK [En_HC] gave -0.46 (5 of 6 replicates; controls 0 of 18). Variant GFGLNEYGIS | VIYADGVRTAYLQNVK | GEVTGFDQY [En_Gibbs] showed 2.03 (1 of 6 replicates; controls 1 of 18). For GFDLDEYGIS | VIYADGRRTYYADSVK | GNVAGTFDV [En_Gen], the assay gave -0.61 (6 of 6 replicates; controls 0 of 18). Variant GFDVNEYGIS | VIYADGRRTQYTQAVK | GKNNMVLFV [En_Gibbs] showed nd (0 of 6 replicates; controls 0 of 18). Variant GFDLQEYGIS | VIYADGHRTAYTNKVK | GGISMISVT [En_Gibbs] gave nd (0 of 6 replicates; controls 0 of 18). For GFTLDEYGIS | VIYADGRRTFYADSVK | GENAGTFDI [En_HC], the assay gave -0.59 (6 of 6 replicates; controls 0 of 18).

With GDNLDEYGIS | VIYADGQRTAYDDPVK | GGQGGTVMV [En_Gibbs] the result was nd (0 of 6 replicates; controls 0 of 18). For GFDLNEYGIS | VIYADGQRTAYTDSVK | GNVAGTFDM [En_Gen], the assay gave -0.19 (6 of 6 replicates; controls 0 of 18). Variant GFELDEYGIS | VIYADGRRTFYQDSVK | GEVAGTFDV [En_HC] gave -0.21 (6 of 6 replicates; controls 0 of 18). With GFGIGEYGIS | VIYADGRRTFYSDDVK | GNMIVTGVD [En_Gibbs] the result was 1.84 (1 of 6 replicates; controls 0 of 18). Variant GFDLNEYGIS | VIYADGMRTAYADSVK | GVNAGTFDV [En_Gen] gave 1.00 (6 of 6 replicates; controls 0 of 18). For GNDLDEYGIS | VIYADGSRTSYIDKVK | GLVGGMLIV [En_Gibbs], the assay gave 1.38 (5 of 6 replicates; controls 0 of 18). For GFDLNEYGIS | VIYADGMRTAYADDVK | GNNAGTFDT [En_Gen], the assay gave 1.23 (6 of 6 replicates; controls 0 of 18).

Variant GDSLDEMGIS | VIYADGQRSYYANSVK | GEHDGLFFQ [En_Gibbs] showed 2.82 (2 of 6 replicates; controls 0 of 18). For GFDLNEYGIS | VIYADGRRTFYTDSVK | GGNAGTFVS [En_HC], the assay gave 1.77 (4 of 6 replicates; controls 0 of 18). Variant GFNLDEYGIS | VIYADGKRTFYSDSVK | GEVAGTFDI [En_HC] gave -0.53 (6 of 6 replicates; controls 0 of 18). Variant GFDLNEYGIS | VIYADGMRTAYANSVK | GEVAGTFDI [En_Gen] showed -0.29 (6 of 6 replicates; controls 0 of 18). Variant GFDLEEYGIS | VIYADGHRSKYANSVK | GGQVDFAIL [En_Gibbs] gave nd (0 of 6 replicates; controls 0 of 18). For GFDLDEYGIS | VIYADGSRTAYADSVK | GQNAGTFDI [En_Gen], the assay gave 1.80 (4 of 6 replicates; controls 0 of 18). Variant GFDLDEYGIS | VIYADGRRTAYADSVK | GNVAGTFDT [En_Gen] showed 0.11 (6 of 6 replicates; controls 1 of 18).

Variant GNDLEEYGIS | VIYADGIRTNYHQNVK | GTLGDTFTQ [En_Gibbs] showed nd (0 of 6 replicates; controls 0 of 18). For GFDLNEYGIS | VIYADGSRTAYSDSVK | GEVAGTFDI [En_Gen], the assay gave -0.15 (6 of 6 replicates; controls 0 of 18). Variant GFDLNEYGIS | VIYADGVRTAYSDSVK | GGNAGTFDI [En_Gen] gave 0.65 (6 of 6 replicates; controls 0 of 18). Variant GFNIDEYGIS | VIYADGMRTAYSNAVK | GIVNGDTFS [En_Gibbs] showed 2.44 (1 of 6 replicates; controls 0 of 18). Variant GFDLNEYGIS | VIYADGMRTAYVDSVK | GNNAGTFDL [En_Gen] gave -0.46 (6 of 6 replicates; controls 0 of 18). Variant GFDLNEYGIS | VIYADGMRTAYADSVK | GTNAGTFVQ [En_Gen] gave 4.51 (1 of 6 replicates; controls 0 of 18). For GFDLNEYGIS | VIYADGMRTQYIDSVK | GETAGTFDS [En_HC], the assay gave -0.62 (6 of 6 replicates; controls 0 of 18).

Variant GNDLEEYGIS | VIYADGMRTAAVDSVK | GDNSGTVVF [En_Gibbs] showed nd (0 of 6 replicates; controls 0 of 18). With GFDLNEYGIS | VIYADGRRTFYVDSVK | GNNAGTFDV [En_HC] the result was -0.35 (6 of 6 replicates; controls 0 of 18). With GFNLNEYGIS | VIYADGMRTFYTDSVK | GETAGTFDA [En_HC] the result was -0.55 (6 of 6 replicates; controls 0 of 18). For GFDLDEYGIS | VIYADGSRQVYQDNVK | GVGFGTFTD [En_Gibbs], the assay gave nd (0 of 6 replicates; controls 2 of 18).

The parent sequence was in this pool as ten entries: three were never detected, three once, and four in most replicates, with averages from 0.34 to 2.37.
Values of this round are not directly comparable with the first-round values of the same sequences.
As a blank, each scFv also met three strains without target: over all heavy chain designs, 1% of these pairings were detected, typically at 2.08 and seldom below 0.84. For each scFv, signals with the empty controls are counted beside the result.